# Yeast mating assay B: variants of the scFv Ab-14

Values reported by Li et al. 2023, doi:10.1038/s41467-023-39022-2 (FLAb copy).

Binding partner: SARS-CoV-2 spike HR2 peptide, sequence PDVDLGDISGINAS.

The variants keep the heavy chain, the linker and the frameworks of Ab-14 (scFv order VH, three GGGGS repeats, VL).
VH: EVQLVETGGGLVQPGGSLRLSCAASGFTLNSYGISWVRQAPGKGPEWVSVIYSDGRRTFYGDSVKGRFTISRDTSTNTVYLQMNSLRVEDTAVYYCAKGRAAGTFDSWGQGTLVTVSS
VL: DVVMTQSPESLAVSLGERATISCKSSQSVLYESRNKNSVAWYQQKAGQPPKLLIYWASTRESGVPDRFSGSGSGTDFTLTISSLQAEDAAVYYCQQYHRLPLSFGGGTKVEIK

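Phage display of a naive human antibody library on the peptide gave the parent. These sequences belong to a second round, designed from the earlier measurements on random variants of the parent. Group labels follow the data file (Ctrl: baseline library sampled from a position-specific scoring matrix, with some repeated check sequences; En: ensemble of fine-tuned language models; GP: Gaussian process model; HC: hill climbing; Gen: genetic algorithm; Gibbs: Gibbs sampling; a sequence that several methods proposed may carry one label only). The assay is AlphaSeq: two haploid yeast populations carry antibody and antigen on their surface. Mating (16 h, 30 °C) was followed by selection of diploids and sequencing of their barcodes. Each replicate has its own calibration line, from reference interactions of the BCL2 family. Mating was done six times.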

The parent's light chain CDRs are KSSQSVLYESRNKNSVA, WASTRES, QQYHRLPLS; each variant's own CDRs replace them letter for letter.
Values are log10 of the apparent Kd in nM; lower means stronger binding.
Replicates are averaged; those with no signal do not enter the mean.
"not detected" means that the variant was in the library but no mating with the target was seen in any replicate; the authors take this as a sign of poor binding, and no number exists.
The authors averaged sequences with at least three values out of six and counted those with two or fewer as poor binders.

CDR-L1	CDR-L2	CDR-L3	group	mean log10 Kd (nM)	seen in	control signals
MIEQGENRDQEHYNSIA	EGHERPR	QQYYRLPLV	En_Gibbs	0.85	6/6	1/18
AFTESIFYGQRDSNAIA	GADVVEK	QQYFRFPLM	En_Gibbs	1.61	6/6	0/18
KQSQSFLYESVNKNSVA	DASTRES	QQYHRLPLS	GP_HC	-0.11	6/6	1/18
HITYGMMVHGRHAKSIA	QAEERAK	QQYDRLPLI	En_Gen	1.34	6/6	1/18
KLSQSVLYEQRNKNSVA	HASTRES	QQYHRLPLS	GP_Gen	0.06	6/6	1/18
MIAESVGYQSRQKNSVA	DNSTRED	QCYDRLPLS	En_HC	2.59	6/6	1/18
KSSQSVLHESRNDNSVA	WASTREP	QQYCRLPLS	Ctrl	1.73	3/6	0/18
KSSQSVLYESRNKHSVA	WASTRES	QQYHQVPLT	Ctrl	not detected	0/6	1/18
MISDLTMYGSRNKSSVA	DSSTRGS	QQYHRLPLS	En_HC	1.01	6/6	1/18
FSQQSVLYESRNFNSVA	HASTRED	QQYHRLPLS	GP_HC	0.74	6/6	1/18
KLSQSNLYESRNKNSVA	NASTRES	QQYHRLPLS	GP_Gen	0.26	6/6	2/18
HIAQSVGMTSFNKNSVA	ENSTREN	QQYDRLPLS	En_HC	1.53	6/6	1/18
SLSHDQGDETNHYENVA	QDHYRAN	QDYSRLPLS	En_Gibbs	0.57	6/6	2/18
KLSQSVMFMSGVYNSVA	QMSTRAE	QQYHRLPLS	En_HC	0.71	6/6	1/18
KISQMSTIESITHNSVA	QTSTREN	QQYDRLPLS	En_HC	0.73	6/6	0/18
KVSQSFLYEDRNKNSVA	NASQRES	QQYHRLPLS	GP_Gen	-0.14	6/6	1/18
KLSQSVRMESFNKDSVA	ENSTREA	QDYHRLPLS	En_HC	1.72	2/6	0/18
KSSQSMLYESRNKNSVA	WASTREH	QQYHRWPLS	Ctrl	2.18	5/6	1/18
KIHMGWEMGSRTNDNIA	EADLRFS	QQYNRLPLF	En_Gibbs	0.81	6/6	1/18
KSSQSVLYENRKENSVA	WASTRES	QQYHRLPLS	Ctrl	2.16	3/6	1/18
HLEQSSPYESRNKNSVA	NASLRCS	QQYHRLPLS	GP_Gibbs	0.68	6/6	0/18
TISELYNQATGMRDNVA	NNQTRED	QQYHRLPLS	En_Gen	1.52	3/6	1/18
KLYQSVPYESRNKNSVA	EASTRES	QQYHRLPLS	GP_Gen	0.07	6/6	1/18
KLSATYRFESQNKNNIA	EMTTRES	QCYHRLPLS	En_HC	0.72	5/6	0/18
HISMITLQGMRQRNSVA	QMTTRVN	QQYDRLPLA	En_Gen	0.60	6/6	0/18

Second part, the sequence after the result:

mean log10 Kd (nM)	seen in	control signals	CDR-L1	CDR-L2	CDR-L3	group
-0.41	6/6	1/18	KLPQSVLYESRQKNSVA	NASQRES	QQYHRLPLS	GP_Gen
0.35	6/6	1/18	KLYVSTMLESHEKNSIA	DLSTRGN	QQYHRLPLS	En_HC
-0.18	6/6	0/18	KLSMVTEYESRNKNNVA	DLTTRGS	QDYHRLPLS	En_HC
2.23	5/6	1/18	KASQSQLMESENKNSIA	WASTRES	QQYHRLPLS	Ctrl
1.15	6/6	1/18	HMSMLTLGGMRHKNSVA	QMTTREN	QQYDRLPLA	En_Gen
1.22	6/6	0/18	KSSQSKLYESRNKNSVA	WASTRES	QQHHRLPLR	Ctrl
1.20	6/6	0/18	KISINQMHYNKMRSNIA	NTNQKAM	QQYFHLPLM	En_Gibbs
not detected	0/6	2/18	KSSQSVLYESRNKNQVA	WASTRES	QSYHRLPLS	Ctrl
not detected	0/6	0/18	KSSQSVLYESRNKNSVA	GASTRES	QQYHILPLS	Ctrl
0.56	6/6	2/18	HSSPSVAYESRNKNSVA	NASTRET	QQYHRLPLS	GP_HC
0.86	6/6	1/18	KISQVAMTTGKLKNSVA	NAYNRVQ	QQYHRLPLS	En_HC
0.53	5/6	0/18	ILWQSQLYESRNKNSVA	QASKREM	QQYHRLPLS	GP_Gibbs
1.06	6/6	0/18	QLAVDRLMEYEMGDAIA	GKTLRVD	QQYARLPLS	En_Gibbs
-0.42	6/6	2/18	NWSQSWLYESRNKNSVA	GGNTRES	QQYHRLPLS	GP_HC
2.92	1/6	0/18	MFLKEDFQQLAAKNAIA	NAREAVT	QHYFRLPLV	En_Gibbs
2.25	5/6	0/18	HMSMLTLSGQRHRNAVA	QMTTREN	QQYDRLPLS	En_Gen
1.52	6/6	1/18	KIQDNLGTLMEQINSVA	ASEEISD	QSYFRLPLI	En_Gibbs
3.14	5/6	1/18	KSSQSVLYESRNKNSVA	RASTRES	QQYHRLGLS	Ctrl
0.66	6/6	0/18	KIGMTLNMMAHKKNNVA	DLVTREN	QQYHRLPLS	En_Gen
1.20	6/6	1/18	MISQLSNMGQFAINSVA	QASLRND	QQYDRLPLV	En_Gen
0.54	6/6	0/18	KIGMTLNQLMHKKNNVA	DLVEREN	QQYFRLPLS	En_Gen
-0.26	6/6	0/18	KSGQGVLYDSRNKNNVA	EASERES	QQYHRLPLS	Ctrl
0.35	6/6	1/18	KLSQSDPYESRNKNSVA	NASTRES	QQYHRLPLS	GP_Gen
0.93	6/6	0/18	KSSQSVLQESDNTNSVA	WASTRES	QQYHRLPLS	Ctrl
-0.20	6/6	4/18	KLYQSTLYESRNPNSVA	NASTRES	QQYHRLPLS	GP_HC
0.95	5/6	0/18	KLLQNVMTEGRIRNNVA	HMTMRED	QQYWRLPLS	En_HC

From the list, the first 3 with no signal in any replicate:

{"CDR-L1": "KSSQSVLYESRNKHSVA", "CDR-L2": "WASTRES", "CDR-L3": "QQYHQVPLT", "group": "Ctrl", "mean log10 Kd (nM)": "not detected", "seen in": "0/6", "control signals": "1/18"}
{"CDR-L1": "KSSQSVLYESRNKNQVA", "CDR-L2": "WASTRES", "CDR-L3": "QSYHRLPLS", "group": "Ctrl", "mean log10 Kd (nM)": "not detected", "seen in": "0/6", "control signals": "2/18"}
{"CDR-L1": "KSSQSVLYESRNKNSVA", "CDR-L2": "GASTRES", "CDR-L3": "QQYHILPLS", "group": "Ctrl", "mean log10 Kd (nM)": "not detected", "seen in": "0/6", "control signals": "0/18"}

As a blank, each scFv also met three strains without target: over all light chain designs, 4% of these pairings were detected, typically at 2.64 and seldom below 1.59. Also given: how often the same scFv was detected with the empty control strains.
The range of this assay differs from that of the first round, and the authors advise against merging the two.